According to publication PMC12250763, “Synergistic and Antagonistic Mechanisms of Arctium lappa L. Polyphenols on Human Neutrophil Elastase Inhibition: Insights from Molecular Docking and Enzymatic Kinetics” (Molecules, 2025):

Target: T1, human neutrophil elastase (HNE) (Homo sapiens, UniProt P08246)
T1 construct: gene ELANE
T1 sequence (P08246 30-247): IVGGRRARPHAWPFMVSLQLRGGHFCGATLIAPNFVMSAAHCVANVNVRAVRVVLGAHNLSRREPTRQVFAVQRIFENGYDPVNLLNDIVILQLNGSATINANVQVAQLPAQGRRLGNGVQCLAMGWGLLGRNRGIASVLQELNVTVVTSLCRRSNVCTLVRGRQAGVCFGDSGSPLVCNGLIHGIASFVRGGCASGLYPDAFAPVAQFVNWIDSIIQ
Experiment: chromogenic elastase assay (MeOSuc-AAPV-pNA, […] nm), dose-response
Assay type: biochemical

CC(C)(C)C(=O)Oc1ccc(S(=O)(=O)Nc2ccccc2C(=O)NCC(=O)O)cc1 [SLT, sivelestat, reference compound] showed an IC50 of 49.8 nM.
